# Measured affinities in a library of Ab-14 light chain variants

Source: Li et al. 2023 (doi:10.1038/s41467-023-39022-2), MIT Lincoln Laboratory and A-Alpha Bio; data file from the FLAb repository.

Antigen: PDVDLGDISGINAS, a 14-residue peptide of the SARS-CoV-2 spike HR2 region.

Each scFv is VH, the linker GGGGSGGGGSGGGGS, VL, as in the parent Ab-14, and differs from it in the CDRs of the light chain only.
VH: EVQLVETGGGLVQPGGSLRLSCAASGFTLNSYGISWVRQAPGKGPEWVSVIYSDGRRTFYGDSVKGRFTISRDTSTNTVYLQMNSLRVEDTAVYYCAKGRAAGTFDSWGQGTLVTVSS
VL: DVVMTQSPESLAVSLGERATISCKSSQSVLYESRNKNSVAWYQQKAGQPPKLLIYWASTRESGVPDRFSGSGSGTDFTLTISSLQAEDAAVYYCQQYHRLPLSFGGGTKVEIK

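Phage display of a naive human antibody library on the peptide gave the parent. These sequences belong to a second round, designed from the earlier measurements on random variants of the parent. Their group label is 14L_En_HC (En: ensemble of fine-tuned language models; HC: hill climbing; a sequence that several methods proposed may carry one label only). Affinity was read by AlphaSeq, a pooled yeast mating assay with surface-displayed partners. Pairs that bind mate more often; barcode pairs of the diploids are counted by sequencing. Scores were corrected for input abundance and mapped to Kd with protein pairs of known affinity run in the same pool. The assay was run in six technical replicates.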

Variants are written as CDR1, CDR2 and CDR3 of the light chain (limits as in the source). Parent: KSSQSVLYESRNKNSVA, WASTRES, QQYHRLPLS.
Scale: log10 of Kd in nM, estimated from mating counts; low values are strong binders.
Averages over replicates are reported, and they cover detected replicates only.
Where no diploid with the target was found in that replicate, the entry reads "ND": below detection, most likely a poor binder, though not proof of it.
Background: pairings of all light chain designs with three empty control strains gave a value in 4% of cases (median 2.64, 5th percentile 1.59). Values in that range, when seen in few replicates, are hard to tell from nonspecific mating. Also given: how often the same scFv was detected with the empty control strains, with their mean in brackets.
In the paper, a design with two or fewer of six values counts as a poor binder.
Values of this round are not directly comparable with the first-round values of the same sequences.

CDR-L1,CDR-L2,CDR-L3,"log10 Kd, replicates",mean log10 Kd (nM),control signals
TISQSAQMELHNKNSVA,DLNVRGS,QQYDRLPLS,0.92 / 0.19 / 0.53 / 0.43 / 0.70 / 1.02,0.63,0 of 18
KISMMSSIESIMHNSVA,QTSTREN,QQYDRLPLS,0.54 / 0.45 / 0.66 / 0.28 / 0.62 / 0.43,0.49,1 of 18 (2.86)
KLRMLTHIESFNKNNVA,EMTTRES,QSYDRLPLS,-0.18 / 0.21 / 0.32 / 0.20 / -0.06 / -0.07,0.07,2 of 18 (2.17)
TISQSANMESHNKNSVA,DLNLRGS,QQYDRLPLS,0.45 / 0.13 / 0.17 / 0.32 / 0.43 / 0.27,0.29,0 of 18
TLSQSWGMESRHKNNVA,QEETREK,QQYFRLPIS,ND / ND / ND / ND / ND / ND,ND,0 of 18
QLLMATMQGEYNRNSVA,HAQTRND,QSYHRLPLS,0.88 / 0.86 / 1.18 / 1.30 / 1.17 / 1.05,1.08,1 of 18 (2.01)
QLYAVQDMTTKNSNSVA,EQSTREN,QQYHRLPLS,0.68 / 1.27 / 0.73 / 0.68 / 0.92 / 1.22,0.92,1 of 18 (1.68)
MAYGGDMLESVTRNSVA,NAETRED,QDYHRLPLS,0.74 / 0.68 / 1.06 / 0.97 / 0.70 / 0.60,0.79,0 of 18
KISMTYRYESQAKNSIA,EMTTREE,QSYHRLPLS,0.04 / -0.22 / 0.15 / -0.05 / -0.13 / 0.31,0.02,0 of 18
MISDLTMYGSRQKNSVA,DLSTRGS,QQYHRLPLS,-0.08 / -0.13 / 0.09 / -0.18 / -0.31 / 0.08,-0.09,0 of 18
KLSGATRLESQNKASVA,ENSTRGE,QQYFRLPLA,0.20 / 0.19 / 0.21 / 0.20 / 0.29 / 0.38,0.24,0 of 18
SLAESVHMESRNKNSVA,DNTTRES,QHYDRLPLS,ND / ND / ND / ND / ND / ND,ND,1 of 18 (2.23)
KLSQVTEYESRNKNSVA,DLTTRGS,QDYHRLPLS,0.18 / 0.16 / 0.10 / -0.02 / -0.02 / 0.16,0.09,1 of 18 (1.80)
MFSQLMEYGSRYKNSVA,QASTREE,QQYHWLPLS,1.93 / 1.23 / 1.02 / 0.99 / 0.99 / 1.13,1.22,1 of 18 (2.76)
MISGSVMSESRLKNSVA,QTTTRES,QQYDRLPLS,ND / 1.44 / ND / 1.95 / 1.40 / 1.39,1.54,0 of 18
KIASSMNLTSHHINSVA,QSTTREE,QQYNHLPLS,1.47 / 0.97 / 1.43 / 1.47 / 1.01 / 1.49,1.31,2 of 18 (2.19)
MFSQLMAYGSRYKNSVA,QASTRED,QQYERLPLS,0.15 / 0.50 / 0.30 / 0.27 / 0.45 / 0.39,0.34,1 of 18 (3.66)
TVSQVHGMLTHNKNSVA,DMNTRGS,QQYDRLPLS,1.45 / 0.13 / 0.67 / -0.63 / 0.16 / 0.37,0.36,0 of 18
TIGQVMNWESRNKNSVA,QTSTREE,QDYDRLPLS,ND / ND / 1.72 / ND / ND / ND,1.72,0 of 18
MISDLMLHGSRAKNPIA,NASTREY,QQYHRLPLE,0.76 / 0.91 / 0.61 / 0.55 / 0.58 / 0.93,0.72,0 of 18
MISDLTMYGSRNYNSVA,DLSTRGS,QQYHRLPLS,-0.26 / -0.14 / -0.16 / -0.17 / 0.13 / 0.01,-0.10,1 of 18 (2.27)
KISASVNYEMVIGQSVA,QMSTREE,QQYDRLPLS,ND / ND / 0.69 / 1.17 / 1.83 / ND,1.23,0 of 18
KIGQMVTEESRNKNSIA,QMTTREG,QQYHRLPLS,0.75 / 1.34 / 0.23 / 0.15 / 0.03 / 1.12,0.60,1 of 18 (1.53)
TVSQVHEMLSHKKNSVA,DMNTRES,QQYDRLPLS,0.36 / 0.45 / 0.44 / 0.15 / 0.30 / 0.31,0.33,0 of 18
KISQVFMTTGKLKNSVA,NAYTRVQ,QQYHRLPLS,0.61 / 0.43 / 0.31 / 0.53 / 0.28 / 0.35,0.42,4 of 18 (3.24)
KLLQVTENMQLNRNSVA,HMSTRED,QQYHTLPLS,0.71 / 0.30 / 0.43 / 0.73 / 0.53 / 0.77,0.58,1 of 18 (5.10)
IITQSVMQESRNKRNVA,NTDEREP,QQYDRLPLI,0.08 / -0.36 / -0.45 / -0.39 / -0.47 / -0.27,-0.31,3 of 18 (2.20)
ALSQMMDMTSRNKNSVA,DLTTREN,QQYHRLPLS,0.11 / 0.28 / -0.03 / -0.18 / 0.15 / 0.25,0.10,1 of 18 (2.55)
TLVQSVMGGSRAKNSVA,NAETRYD,QHYHRLPLS,0.48 / 0.24 / 0.73 / 0.41 / -0.01 / 0.32,0.36,1 of 18 (2.80)
KLGSMVLLEYGGKNSIA,QQSTREE,QQYDRLPLS,1.15 / 0.83 / 0.91 / 1.24 / 1.07 / 1.30,1.09,0 of 18
ALGTSTLEESRNKNSVA,EMSTRES,QSYNRLPLS,0.70 / 0.93 / 0.40 / 0.67 / 0.79 / 0.72,0.70,0 of 18
KLYSNVGTMSHNKQSIA,DMERRED,QQYHRLPLS,-0.20 / -0.13 / -0.21 / -0.16 / -0.40 / -0.21,-0.22,0 of 18
KLSQSHNYLSRVMNSVA,DNSTRES,QQYFRLPLS,0.39 / 0.67 / 0.46 / 0.31 / 0.56 / 0.50,0.48,1 of 18 (1.58)
TISNSFMMENQFKNSVA,QASTRES,QCYDRLPLS,0.53 / 0.91 / 1.20 / 0.72 / 0.80 / 0.94,0.85,2 of 18 (3.26)
SIMQVGGYESNAHNSIA,DLRTRES,QQYHRLPLS,0.20 / 0.40 / -0.04 / 0.17 / 0.08 / 0.28,0.18,0 of 18
IITQSVMQESRNKSNVA,NTTEREP,QQYDRLPLI,1.86 / ND / 1.89 / 3.07 / 2.82 / 2.53,2.43,0 of 18
MISESVMYESRNRNNVA,DHSTRED,QCYDRLPLS,-1.23 / -1.02 / -0.33 / -0.57 / -0.98 / -0.71,-0.81,0 of 18
KLLQTVMNGRRNRNNVA,HMTTRED,QQYFRLPLS,ND / ND / ND / 2.15 / ND / ND,2.15,0 of 18

The opening 6 entries, copied out:

CDR-L1	CDR-L2	CDR-L3	log10 Kd, replicates	mean log10 Kd (nM)	control signals
TISQSAQMELHNKNSVA	DLNVRGS	QQYDRLPLS	0.92 / 0.19 / 0.53 / 0.43 / 0.70 / 1.02	0.63	0 of 18
KISMMSSIESIMHNSVA	QTSTREN	QQYDRLPLS	0.54 / 0.45 / 0.66 / 0.28 / 0.62 / 0.43	0.49	1 of 18 (2.86)
KLRMLTHIESFNKNNVA	EMTTRES	QSYDRLPLS	-0.18 / 0.21 / 0.32 / 0.20 / -0.06 / -0.07	0.07	2 of 18 (2.17)
TISQSANMESHNKNSVA	DLNLRGS	QQYDRLPLS	0.45 / 0.13 / 0.17 / 0.32 / 0.43 / 0.27	0.29	0 of 18
TLSQSWGMESRHKNNVA	QEETREK	QQYFRLPIS	ND / ND / ND / ND / ND / ND	ND	0 of 18
QLLMATMQGEYNRNSVA	HAQTRND	QSYHRLPLS	0.88 / 0.86 / 1.18 / 1.30 / 1.17 / 1.05	1.08	1 of 18 (2.01)